Laboratory results: patent US20090018116A1, “Therapeutic Compounds” (ASTRAZENECA AB, priority 2004, published 2009)

The chains behind the UniProt entries cited, without tags or fusion partners.
UniProt P21554, whole entry: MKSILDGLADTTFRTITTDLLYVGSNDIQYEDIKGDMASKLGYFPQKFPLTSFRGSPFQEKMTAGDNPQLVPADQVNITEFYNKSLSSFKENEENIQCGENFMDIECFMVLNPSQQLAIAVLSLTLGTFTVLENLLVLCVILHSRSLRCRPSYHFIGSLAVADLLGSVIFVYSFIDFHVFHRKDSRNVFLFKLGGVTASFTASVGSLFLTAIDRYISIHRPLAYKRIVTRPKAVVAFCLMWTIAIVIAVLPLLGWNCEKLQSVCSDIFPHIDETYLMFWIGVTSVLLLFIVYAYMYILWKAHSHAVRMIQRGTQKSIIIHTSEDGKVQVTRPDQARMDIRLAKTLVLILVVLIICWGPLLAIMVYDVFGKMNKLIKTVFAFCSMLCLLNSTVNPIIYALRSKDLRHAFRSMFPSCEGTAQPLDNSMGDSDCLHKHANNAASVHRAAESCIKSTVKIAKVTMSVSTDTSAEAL

Biological target: T1, Human CB1 receptor (Homo sapiens, UniProt P21554)
T1 construct: purchased Receptor Biology
Assay: hCB1 GTPγS binding
Format: biochemical
Settings: hCB1 membranes, GTPg35S binding
Experimental: Human CB1 receptor from Receptor Biology (hCB1) or human CB2 receptor membranes (BioSignal) are thawed at 37° C., passed 3 times through a 25-gauge blunt-end needle and diluted in the GTPγS binding buffer (50 mM Hepes, 20 mM NaOH, 100 mM NaCl, 1 mM EDTA, 5 mM MgCl2, pH 7.4, 0.1% BSA). The EC50 and Emax of the compounds of the invention are evaluated from 10-point dose-response curves done in 300 μl with the appropriate amount of membrane protein and 100000-130000 dpm of GTPg^35S per well (0.11-0.14 nM). The basal and maximal stimulated binding is determined in absence and presence of 1 μM (hCB2) or 10 μM (hCB1) Win 55,212-2 respectively. The membranes are pre-incubated for 5 minutes with 56.25 μM (hCB2) or 112.5 μM (hCB1) GDP prior to distribution in plates (15 μM (hCB2) or 30 μM (hCB1) GDP final). The plates are vortexed and incubated for 60 minutes at room temperature, filtered on Unifilters GF/B (presoaked in water) with the Tomtec or Packard harvester using 3 ml of wash buffer (50 mM Tris, 5 mM MgCl2, 50 mM NaCl, pH 7.0). The filters are dried for 1 hour at 55° C. The radioactivity (cpm) is counted in a TopCount (Packard) after adding 65 μl/well of MS-20 scintillation liquid. […]

O=C(NCC1CCCCC1)c1c(O)cccc1NC(=O)c1cccc2ccccc12 [Example 49, N-[2-[[(Cyclohexylmethyl)amino]carbonyl]-3-hydroxyphenyl]-1-naphthalenecarboxamide]
EC50: 968 nM
